{
  "sequences": {"note": "Chains of the proteins cited; added tags and fusions are not shown. Lines headed by an entry give the natural chain unless they say otherwise; changes in a name come on top.", "UniProt P08482": "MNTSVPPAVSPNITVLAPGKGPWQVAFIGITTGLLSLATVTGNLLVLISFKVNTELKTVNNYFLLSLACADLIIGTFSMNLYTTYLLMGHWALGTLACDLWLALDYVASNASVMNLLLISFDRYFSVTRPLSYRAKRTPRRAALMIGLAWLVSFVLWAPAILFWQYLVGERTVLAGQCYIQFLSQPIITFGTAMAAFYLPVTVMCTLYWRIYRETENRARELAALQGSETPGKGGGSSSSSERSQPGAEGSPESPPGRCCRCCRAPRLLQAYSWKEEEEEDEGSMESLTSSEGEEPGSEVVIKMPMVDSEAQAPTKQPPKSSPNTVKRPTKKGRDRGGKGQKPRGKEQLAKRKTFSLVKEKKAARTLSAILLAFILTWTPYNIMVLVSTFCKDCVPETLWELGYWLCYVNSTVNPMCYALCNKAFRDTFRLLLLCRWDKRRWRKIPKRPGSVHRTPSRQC"},
  "source": "ChEMBL document CHEMBL1130275",
  "about": "“Novel N-substituted 3 alpha-[bis(4'-fluorophenyl)methoxy]tropane analogues: selective ligands for the dopamine transporter” (J Med Chem, 1997)",
  "target": "Muscarinic acetylcholine receptor M1 (Rattus norvegicus, UniProt P08482)",
  "assay": "Binding affinity against Muscarinic acetylcholine receptor M1 sites of rat",
  "procedure,_shortened": "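Whole rat brain minus cerebellum, membranes made by two-step centrifugation and resuspended in 10 mM Tris pH 7.4. Assay buffer is 10 mM Tris-HCl with 5 mM MgCl2. Membrane is preincubated 5 min with the compound, then [3H]pirenzepine 3 nM final is added for 1 h at 37 °C. Filtration through PEI-soaked GF/B. Compounds run at 0.01 nM–100 μM, ≥3 independent experiments in triplicate.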",
  "note": "pKi: −log10 of the molar value.",
  "data": [
    {"smiles": "CN1C2CCC1CC(OC(c1ccc(F)cc1)c1ccc(F)cc1)C2", "note": "(stereo unspecified) [DIFLUOROBENZTROPINE]", "values": [
      {"measurement": "pKi", "result": 8.05}
    ]}
  ]
}
